Measurements taken from ChEMBL document CHEMBL3352389, “Evaluation of class I HDAC isoform selectivity of largazole analogues” (Bioorg Med Chem Lett, 2014).

The chains behind the UniProt entries cited, without tags or fusion partners. Where a name states a change or a piece, a line headed by the entry shows the natural chain unless it says otherwise.
UniProt O15379: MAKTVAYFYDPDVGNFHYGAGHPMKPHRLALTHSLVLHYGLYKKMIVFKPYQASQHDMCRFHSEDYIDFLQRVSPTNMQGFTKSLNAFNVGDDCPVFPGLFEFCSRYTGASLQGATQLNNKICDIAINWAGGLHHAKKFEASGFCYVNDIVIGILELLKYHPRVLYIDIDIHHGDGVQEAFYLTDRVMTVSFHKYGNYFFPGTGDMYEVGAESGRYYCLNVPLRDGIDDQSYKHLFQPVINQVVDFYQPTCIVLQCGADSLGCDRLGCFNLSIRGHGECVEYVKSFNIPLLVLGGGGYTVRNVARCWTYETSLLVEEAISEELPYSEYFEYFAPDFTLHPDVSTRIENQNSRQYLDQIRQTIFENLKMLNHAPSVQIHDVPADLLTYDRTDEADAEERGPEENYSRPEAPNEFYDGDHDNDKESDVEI
UniProt Q92769, whole entry: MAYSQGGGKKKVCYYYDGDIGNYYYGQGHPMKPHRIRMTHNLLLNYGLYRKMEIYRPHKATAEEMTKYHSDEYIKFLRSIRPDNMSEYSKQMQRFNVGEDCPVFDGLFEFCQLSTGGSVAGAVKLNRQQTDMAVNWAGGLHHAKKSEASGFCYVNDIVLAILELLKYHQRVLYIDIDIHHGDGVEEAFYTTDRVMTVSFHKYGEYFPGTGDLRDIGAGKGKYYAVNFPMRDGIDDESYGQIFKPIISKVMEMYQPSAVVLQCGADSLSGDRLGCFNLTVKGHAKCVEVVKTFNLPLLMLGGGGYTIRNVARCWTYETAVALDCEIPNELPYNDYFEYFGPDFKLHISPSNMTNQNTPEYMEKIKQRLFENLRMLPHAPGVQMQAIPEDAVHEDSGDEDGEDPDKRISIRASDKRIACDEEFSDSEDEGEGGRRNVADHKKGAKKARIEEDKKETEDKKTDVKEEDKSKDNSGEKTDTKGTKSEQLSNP

Columns and labels:
Histone deacetylase 3 = Histone deacetylase 3 (Homo sapiens, UniProt O15379); assay: Inhibition of HDAC3 (unknown origin) incubated at 37 degC for 30 mins
Histone deacetylase 2 = Histone deacetylase 2 (Homo sapiens, UniProt Q92769); assay: Inhibition of HDAC2 (unknown origin) incubated at 37 degC for 30 mins

## CC(C)(C)OC(=O)n1cnc(C[C@@H]2NC(=O)[C@]3(C)CSC(=N3)c3csc(n3)CNC(=O)C[C@@H](/C=C/CCS)OC2=O)c1
Histone deacetylase 3
  IC50: 1.1 nM
Histone deacetylase 2
  IC50: 1.1 nM
